The assay has as its target T1, human EP2 receptor (Homo sapiens, UniProt P43116).
T1 construct: host or cells: HEK293, transient; membrane preparation
Briefly: [3H]-PGE2 receptor binding assay, EP2 membranes. The note with it: read-out: ^3[H] PGE2 Binding/kd EP2; HEK 293 membranes, homologous competition (Fig. 3D). Here is the method:
Receptor binding assays were done using membrane preparations of HEK 293 cells transfected with various prostanoid receptors using previously published procedure (Nakao et al. 2007). EP1 and EP4 membranes were prepared from recombinant HEK293 cells stably expressing human EPl receptor (GenBank Accession # AY275470, Clone ID PER0100000, UMR cDNA Resource Center, Rolla, MO) or human EP4 receptor. EP2 and EP3 membranes were prepared from HEK293 cells transiently transfected with human EP2 receptor (GenBank Accession # AY275471, Clone ID PER0200000, UMR cDNA Resource Center, Rolla, MO) or human EP3 receptor (GenBank Accession # AY429108, Clone ID PER3VI0000, UMR cDNA Resource Center, Rolla, MO) plasmids. […] The membranes were harvested by filtration (TomTek harvester), washed four times with cold buffer (10 mmol/L MES, pH 6.0, 10 mmol/L MgCl2), dried in a 60°C oven, and the radioactivity was quantified as counts per min (CPM) using a TopCount detector. […] Data were analyzed using a 4‐parameter nonlinear logistic equation. […] Results are expressed as the geometric mean ± standard deviation or geometric mean ± standard error as noted.

By UniProt entry, the sequences of proteins in these tests, tags left out. Where a name states a change or a piece, a line headed by the entry shows the natural chain unless it says otherwise.
UniProt P43116: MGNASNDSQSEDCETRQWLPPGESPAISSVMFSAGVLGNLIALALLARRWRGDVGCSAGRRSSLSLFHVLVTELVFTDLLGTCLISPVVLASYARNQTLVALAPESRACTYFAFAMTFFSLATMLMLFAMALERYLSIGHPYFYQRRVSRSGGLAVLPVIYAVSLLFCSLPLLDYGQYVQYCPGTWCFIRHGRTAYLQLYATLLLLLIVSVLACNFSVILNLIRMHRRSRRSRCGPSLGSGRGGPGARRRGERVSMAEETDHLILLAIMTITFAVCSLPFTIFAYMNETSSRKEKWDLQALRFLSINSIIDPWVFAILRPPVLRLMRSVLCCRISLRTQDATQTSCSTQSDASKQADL

Structures are written as SMILES. pKd: −log10 of the molar value.

Regarding `CCCCC[C@H](O)/C=C/[C@H]1[C@H](O)CC(=O)[C@@H]1C/C=C\CCCC(=O)O` [^3[H] PGE2, reference compound], the pKd is 8.39.

The values are drawn from PMC5464344, “Analgesic and anti‐inflammatory properties of novel, selective, and potent EP4 receptor antagonists” (Pharmacology Research & Perspectives, 2017).
